According to article PMC10131585, “Computational design of a cyclic peptide that inhibits the CTLA4 immune checkpoint” (RSC Medicinal Chemistry, 2023):

Conditions: inferred by the authors from failed/successful synthesis and number of charged/hydrophobic residues

cyc-SIITVLTPTGWVAAEFS (head to tail) [Peptide 12]
Solubility (in words): low solubility
